Target: Carbonic anhydrase 12 (Homo sapiens, UniProt O43570)
Test: Inhibition Assay
Details: pH 7.5; 20 °C

By UniProt entry, the sequences of proteins in these tests, tags left out. Where a name states a change or a piece, a line headed by the entry shows the natural chain unless it says otherwise.
UniProt O43570: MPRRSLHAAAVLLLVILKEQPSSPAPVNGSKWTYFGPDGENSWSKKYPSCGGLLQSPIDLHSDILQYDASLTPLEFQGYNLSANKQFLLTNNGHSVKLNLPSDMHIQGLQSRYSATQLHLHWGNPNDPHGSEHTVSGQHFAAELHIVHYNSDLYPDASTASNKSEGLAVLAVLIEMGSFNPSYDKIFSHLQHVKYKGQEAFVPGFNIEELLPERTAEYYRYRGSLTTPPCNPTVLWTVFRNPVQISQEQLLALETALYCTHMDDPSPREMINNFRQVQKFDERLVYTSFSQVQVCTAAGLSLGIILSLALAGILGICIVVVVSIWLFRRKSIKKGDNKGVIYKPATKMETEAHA

NS(=O)(=O)c1ccc(N2CCCCS2(=O)=O)cc1 [Ospolot]
Ki: 0.056 µM

Source: BindingDB's records for doi:10.1111/j.1747-0285.2009.00857.x (Istituto Di Biostrutture E Bioimmagini-Cnr, 2009)
